The values below come from patent publication US9963460B1, “Morphinan derivative” (dated 2018).

The test system of one series is ICR male mice. Nature of the series: Acetic acid writhing test. The conditions noted are these: s.c., 30 minutes before 0.6% acetic acid i.p. In general terms: Writhing tests count abdominal constrictions after an irritant is injected.
The next series relates to mice. Nature of the series: Rotarod test (sedative effect). The conditions noted are these: 1 to 30 μg/kg s.c., 120 minutes after administration, 8 rpm for 300 seconds, compared with nalfurafine, FIG. 1.

Turning to `CN(Cc1ccccc1)C(=O)C1=C[C@@]23CC[C@]1(O)[C@@H]1Oc4c(O)ccc5c4[C@@]12CCN(CC1CC1)[C@@H]3C5.Cl`, in the series with ICR male mice, the “Writhing suppression effect ED50 value” came to 1.67 µg/kg. Further, in the series on mice, the “Sedative effect (total number of dropping times)” value is reported as “no sedative effect”.
